## Curated experimental data: properties

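These are experimental values that the OPERA curators gathered from public databases to train and test their QSAR models. One number stands for a compound and property, with no spread given. Conditions of the individual experiments are not part of the data. Where a salt, mixture or single isomer is drawn, the source does not say that exactly this form was tested. Unmarked limits or estimates from the upstream databases cannot be ruled out.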

Melting points are in °C.
Boiling points are in °C, nominally at 760 mmHg.
The octanol-water partition coefficient is given as log10; larger values mean a more lipophilic compound.
Solubility in water is on a log10 molar scale (set defined at 25 °C).
Vapor pressures (log10 mmHg) refer to near room temperature, 15 to 30 °C; higher is more volatile.
The Henry's law constant is on a log10 scale in atm·m3/mol (set defined at 25 °C); higher favours air over water.
The unbound fraction in human plasma runs from 0 (all bound) to 1 (all free).
Intrinsic clearance (human, µL/min per 10^6 hepatocytes): higher is faster turnover, and 0 stands for none detected.
Cells with "–" have no entry in this list.

| mp (°C) | BP (°C) | log Kow | log S (log10 mol/L) | vapor pressure (log10 mmHg) | Henry's law constant (log10 atm·m3/mol) | fraction unbound | Clint (µL/min/10^6 cells) | SMILES | name |
|---|---|---|---|---|---|---|---|---|---|
| – | – | – | – | -5.535 | -7.722 | – | – | CCCC(C)(C)C(=O)Nc1ccc(Cl)cc1 | Monalide |
| – | – | -4.57 | – | -6.914 | – | – | – | C[C@H](N)C(=O)N[C@@H](CCC(N)=O)C(=O)O | Alanylglutamine |
| – | – | 1.46 | – | -6.084 | – | – | – | O=C(OCC1CO1)C1CC=CCC1C(=O)OCC1CO1 (centres undefined) | – |
| – | – | – | – | – | – | 0.0475 | 0 | Cc1ccc(S(=O)(=O)NC(=O)NN2CCCCCC2)cc1 | Tolazamide |
| 164 | – | – | -4.123 | -11.19 | – | – | – | Cc1cc(C(F)(C(F)(F)F)C(F)(F)F)ccc1NC(=O)c1ccccc1/C(O)=N/C(C)(C)CS(C)=O (stereo partly drawn) | – |
| – | – | 2.14 | – | 0.805 | – | – | – | FC(F)(F)c1cccc(Cl)c1 | 3-Chlorobenzotrifluoride |
| 54 | – | – | -6.77 | – | – | – | – | Clc1cc(Oc2ccccc2)cc(Cl)c1Cl | 3,4,5-Trichlorodiphenyl ether |
| – | – | – | -2.327 | -3.799 | – | – | – | O=C1C=CC(=O)N1c1ccccc1 | 1-Phenyl-1H-pyrrole-2,5-dione |
| – | – | 3.06 | -3.616 | – | – | – | – | CCCCCCCCCCCCCCCCCC[N+](C)(C)C.[Br-] | 1-Octadecanaminium, N,N,N-trimethyl-, bromide (1:1) |
| – | 345 | -0.585 | – | – | – | – | – | COCCOCCOCCOB(OCCOCCOCCOC)OCCOCCOCCOC | Tris(2-(2-(2-methoxyethoxy)ethoxy)ethyl) orthoborate |
| -76 | – | 4.09 | -3.292 | -0.111 | – | – | – | C=C(C)COCC/C=C\CC | (3Z)-1-[(2-Methylprop-2-en-1-yl)oxy]hex-3-ene |
| 83 | 413.5 | – | -6.983 | -7.292 | – | – | – | CCCCOc1ccc(-c2ccc(-c3ccc(CC)cc3)c(F)c2)c(F)c1F | – |
| – | – | – | – | 0.959 | -2.501 | – | – | CCN1CCCCC1 | Piperidine, 1-ethyl- |
| – | – | 3.7 | -5.472 | -8.727 | – | – | – | CCCCC1=NC2(CCCC2)C(=O)N1Cc1ccc(-c2ccccc2C#N)cc1 | – |
| – | – | 0.2 | -2.885 | – | – | – | – | NS(=O)(=O)c1cc(Cl)c(Cl)c(S(N)(=O)=O)c1 | Dichlorphenamide |
| -98 | – | 6.21 | – | -0.557 | – | – | – | CCCCC(CC)COC(=O)c1ccccc1 (centres undefined) | 2-Ethylhexyl benzoate |
| – | – | 5.6 | -5.112 | – | – | – | – | C#CC(C)(O)CCCC(C)CCCC(C)C (centres undefined) | 3,7,11-Trimethyldodec-1-yn-3-ol |
| – | – | -0.039 | – | -1.429 | – | – | – | CN(C)CCOCCN(C)CCOCCN(C)C | N,N,2,8-Tetramethyl-5,11-dioxa-2,8-diazatridecan-13-amine |
| – | – | 2.7 | – | -1.536 | – | – | – | CC(C)(C1CCCO1)C1CCCO1 (centres undefined) | 2,2'-isopropylidenebis(tetrahydrofuran) |
| 78 | – | 4 | -5.767 | -4.725 | – | – | – | COc1ccc(OC(=O)c2ccc(OCCCCC3CO3)cc2)cc1 (centres undefined) | 4-Methoxyphenyl 4-(4-(2-oxiranyl)butoxy)benzoate |
| – | – | 0.299 | -2.217 | -11.61 | – | – | – | O=C(O)c1ccc(C(=O)O)o1 | 2,5-Furandicarboxylic acid |
| -17.4 | – | – | -2.621 | -2.969 | – | – | – | C=CC(=O)OCCC(C)CCOC(=O)C=C | 3-Methyl-1,5-pentanediyl diacrylate |
| 85.1 | – | 6.1 | -7.028 | – | – | – | – | CCCCCCCCCCCCCCCCCCNC(=O)CCCCCCCCCCCCCCCCC | Octadecanamide, N-octadecyl- |
| – | – | 2.8 | -3.505 | – | – | – | – | Cc1oncc1C(=O)Nc1ccc(C(F)(F)F)cc1 | Leflunomide |
| – | – | – | – | – | – | 0.953 | 0 | C=CN1CCCC1=O | N-vinyl-2-pyrrolidone |
| – | – | 3.4 | -3.704 | – | – | – | – | Cc1cc(C(C)(C)C)c(O)c(C)c1CC1=NCCN1 | Oxymetazoline |
| 68 | 372.4 | – | -5.307 | – | – | – | – | CCCCCCC(O)CCCCCCCCCCCO (centres undefined) | Octadecane-1,12-diol |
| 183 | – | – | -2.917 | -6.072 | – | – | – | Cc1ccc(C(N)=O)c(O)c1 | 4-Methylsalicylamide |

2 of these entries, quoted again:

{"smiles": "NS(=O)(=O)c1cc(Cl)c(Cl)c(S(N)(=O)=O)c1", "name": "Dichlorphenamide", "log Kow": "0.2", "log S (log10 mol/L)": "-2.885"}
{"smiles": "C[C@H](N)C(=O)N[C@@H](CCC(N)=O)C(=O)O", "name": "Alanylglutamine", "log Kow": "-4.57", "vapor pressure (log10 mmHg)": "-6.914"}

Data: OPERA 2.9 data sets, kmansouri/OPERA on GitHub.